Among the data in patent US20030032096A1 (US Dept. of Health and Human Services, published 2003) are -logEC50 (cAMP accumulation) and EC50 (cAMP accumulation) values, retold here.

Protein sequences, listed by entry. Tags and fused reporters are not part of them. Residues count along the entry.
UniProt P70555, 25-546: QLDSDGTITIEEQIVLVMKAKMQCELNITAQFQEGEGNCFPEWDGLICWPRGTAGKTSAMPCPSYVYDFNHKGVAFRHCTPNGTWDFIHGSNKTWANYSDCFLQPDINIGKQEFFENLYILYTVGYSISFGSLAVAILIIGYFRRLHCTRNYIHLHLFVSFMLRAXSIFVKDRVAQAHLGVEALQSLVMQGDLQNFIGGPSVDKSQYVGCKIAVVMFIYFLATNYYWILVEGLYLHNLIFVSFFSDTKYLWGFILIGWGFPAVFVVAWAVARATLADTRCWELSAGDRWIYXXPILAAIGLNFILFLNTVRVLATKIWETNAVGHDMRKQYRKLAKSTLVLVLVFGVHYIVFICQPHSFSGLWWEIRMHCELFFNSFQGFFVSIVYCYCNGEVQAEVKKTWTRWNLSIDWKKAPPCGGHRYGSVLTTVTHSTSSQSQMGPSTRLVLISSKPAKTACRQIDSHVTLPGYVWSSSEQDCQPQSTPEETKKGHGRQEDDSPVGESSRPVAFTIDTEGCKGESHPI
UniProt P49190, 25-550: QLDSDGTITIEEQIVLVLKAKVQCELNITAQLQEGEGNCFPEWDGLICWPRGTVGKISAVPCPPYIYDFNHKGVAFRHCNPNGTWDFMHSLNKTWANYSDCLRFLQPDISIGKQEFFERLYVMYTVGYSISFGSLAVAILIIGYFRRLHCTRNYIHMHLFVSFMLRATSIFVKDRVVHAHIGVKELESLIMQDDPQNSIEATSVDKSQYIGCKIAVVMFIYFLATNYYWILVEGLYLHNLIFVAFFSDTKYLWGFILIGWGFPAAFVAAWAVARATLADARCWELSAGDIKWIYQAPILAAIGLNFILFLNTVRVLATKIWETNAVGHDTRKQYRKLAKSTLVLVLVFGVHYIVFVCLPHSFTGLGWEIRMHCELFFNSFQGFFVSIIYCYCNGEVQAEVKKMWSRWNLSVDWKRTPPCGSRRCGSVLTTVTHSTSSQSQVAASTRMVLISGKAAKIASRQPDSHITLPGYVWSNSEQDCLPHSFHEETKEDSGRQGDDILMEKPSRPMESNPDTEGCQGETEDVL

One assay addresses rat PTH2 receptor (rat, UniProt P70555 25-546). Nature of the assay: cell-based or functional assay.
For assay [1], the target named is human parathyroid hormone type 2 receptor (PTH2 receptor) (human) (UniProt P49190). Nature of the assay: cell-based or functional assay.

In the assay with rat PTH2 receptor, SVSEIQLMHNLGKHLNSMERVEWLRKKLQDVHNF (peptide, UniProt P01270 32-65, looked up) [hPTH(1-34)] came in with a -logEC50 (cAMP accumulation) of 6.85 and an EC50 (cAMP accumulation) of 140 nM.

B1: hPTH(1-84) (peptide, UniProt P01270 32-115, looked up)
peptide: SVSEIQLMHNLGKHLNSMERVEWLRKKLQDVHNFVALGAPLAPRDAGSQRPRKKEDNVLVESHEKSLGEADKADVNVLTKAKSQ
In assay [1], B1 displayed a -logEC50 (cAMP accumulation) of 8.26 and an EC50 (cAMP accumulation) of 5.5 nM.
